From PubChem BioAssay AID589 (National Center for Advancing Translational Sciences (NCATS), 2007)
The list shows a part of the results, in another mix than the full data. Results filed as inconclusive are left out. The source made the active and inactive calls. Cut-off read from the data, not from the text of the source: active = max dye-equivalent concentration above about 10 nM; inconclusive = mostly about 1.1 nM to 9.6 nM; inactive = weaker than that.

Assay: qHTS Assay for Spectroscopic Profiling in 4-MU Spectral Region
Settings: compound autofluorescence, 340/450 nm, 4-MU equivalents
Excerpt: NIH Molecular Libraries Screening Centers Network [MLSCN] NIH Chemical Genomics Center [NCGC] […] Occasionally, the artifactual effect may originate from the compounds own spectral or other biophysical properties which generally tend to track its assay concentration. Pre-screening/profiling the library with respect to the compounds spectral properties should help one exclude false positives early on. While the most informative fluorescent profiling data set is obtained by performing a full excitation and emission scan of each well by using a monochromator-based plate reader, such an approach is practical only on a very limited scale as scanning each well requires long time. An alternative approach, applied here, is to perform plate reader scans using selected excitation and emission wavelength pairs to generate a multidimensional relational database that correlates compound concentration and the respective relative fluorescence intensity at a given wavelength set. A standard curve of 4-methylumbelliferone (4-MU) present on each plate as six-point concentration series, was used to compute a normalized fluorescence response, termed dye-equivalent concentration, for each compound at each concentration.
NCGC Assay Protocol Summary: Buffer: 100 mM Tris buffer, pH 8.0 Dye standard plate: The wells in columns 1 through 4 of a Kalypsys polypropylene 1536-well compound plate were filled with standard solutions of fluorophore corresponding to the spectral region of interest. Solutions of 4-MU were placed in the following wells: A1, B1: 3 mM, A2, B2: 300 uM, A3, B3: 30 uM, A4, B4: zero (DMSO), C1, D1: 3 uM, C2, D2: 900 nM, C3, D3: 300 nM, C4, D4: zero (DMSO). Assay Steps: Six uL of buffer were dispensed to 1536-well Greiner black plates. Compounds and dye standards (23 nL) were transferred via Kalypsys PinTool. The plates were incubated for 15 min at room temperature, and then read on ViewLux (Perkin-Elmer) High-throughput CCD imager using 340 nm and 450 nm excitation and emission filter set. Keywords: NIH Roadmap, MLSCN, MLI, MLSMR, qHTS, NCGC, Fluorescent Profiling, 4MU, 4-MU

| Structure (SMILES) | outcome |
| --- | --- |
| NCC[C@@H](N)CSP(=O)(O)O | inactive |
| O=[N+]([O-])c1ccc(C[As](=O)(O)O)cc1 | inactive |
| C(Cc1nn[nH]n1)c1nn[nH]n1 | inactive |
| [N-]=[N+]=NCC(O)CN=[N+]=[N-] (centres undefined) | inactive |
| COc1ccccc1OP(C)(=O)Nc1ccc(C)c(C)c1 (centres undefined) | inactive |
| C/C1=C2N=C(/C=C3N=C(/C(C)=C4\[N-][C@@](C)([C@H]5N=C1[C@@](C)(CCC(=O)NC[C@H](C)OP(=O)([O-])O[C@@H]1[C@H](O)[C@H](n6cnc7cc(C)c(C)cc76)O[C@@H]1CO)[C@@H]5CC(N)=O)[C@](C)(CC(N)=O)[C@H]4CCC(N)=O)[C@@](C)(CC(N)=O)[C@@H]\3CCC(N)=O)C(C)(C)[C@@H]/2CCC(N)=O.[C-]#N.[Co+3] | inactive |
| CN(C(=O)Cc1ccccc1)[C@@H]1CC[C@@]2(CCCO2)C[C@H]1N1CCCC1 | inactive |
| O=C(CO)Nc1ccc([As](=O)(O)O)cc1 | inactive |
| COc1ccccc1OP(C)(=O)Nc1c(C)n(C)n(-c2ccccc2)c1=O (centres undefined) | inactive |
| CCc1nc2c(n1)c1c(non1O)c1c2no[n+]1[O-] | inactive |
| CCN(CC)CC(O)COC(=O)C(O)(c1ccccc1)C1CCCCC1 (centres undefined) | inactive |
| N#[O+].[C-]#N.[C-]#N.[C-]#N.[C-]#N.[C-]#N.[Fe+2].[Na+].[Na+] | inactive |
| Cc1ccccc1NP(C)(=O)Nc1ccccc1C | inactive |
| C[C@@H](O)COc1ccc([As](=O)(O)O)cc1N | inactive |
| NNC(NN)NN.n1nc(-c2nn[nH]n2)n[nH]1 | inactive |
| CCOP(C)(=S)SCC(=O)NC(C)(CC)C(=O)O (centres undefined) | inactive |
| c1nnnn1CCn1cnnn1 | inactive |
| O=P(Nc1nccs1)(c1ccccc1)c1ccccc1 | inactive |
| O=C(OC1CN2CCC1CC2)c1cccc(Cl)c1 (centres undefined) | inactive |
| CN(C)CCOC(=O)C(O)(c1ccccc1)C1CCCCC1 (centres undefined) | inactive |
| [N-]=[N+]=Nc1ccc([As](=O)(O)O)cc1 | inactive |
| COC(=O)c1cc2c(s1)N=C(c1ccccc1)N(C)P2(=O)N1CCOCC1 (centres undefined) | inactive |
| CP(=O)(Nc1ccccc1F)Oc1ccccc1 (centres undefined) | inactive |
| O=P1(Nc2nc3ccc(Cl)cc3s2)COc2ccccc2O1 (centres undefined) | inactive |
| NS(=O)(=O)Cc1ccc([As](=O)(O)O)cc1 | inactive |

| Structure (SMILES) | outcome |
| --- | --- |
| CCOP1(=S)c2c(C)nn(CCC#N)c2N=C(c2ccc(F)cc2)N1C (centres undefined) | inactive |
| NC(=O)Nc1ccc([As](=O)(O)O)cc1 | inactive |
| O=[As](O)(O)c1ccc([As](=O)(O)O)cc1 | inactive |
| CCOP1(=S)c2c(C)nn(CCC#N)c2N=C(c2ccccc2F)N1C (centres undefined) | inactive |
| O=P(Nc1nccs1)(c1ccccc1)c1nc2ccccc2s1 (centres undefined) | inactive |
| O=P1(Nc2ccc(Br)cn2)COc2ccccc2OC1 | inactive |
| Cc1ccc(OCC(=O)OC2CN3CCC2CC3)cc1 (centres undefined) | inactive |
| O=P1(Nc2ncccn2)COc2ccccc2OC1 | inactive |
| Cc1nn(-c2ccccc2)c2c1P(=O)(N1CCOCC1)N(C)C(c1ccccc1)=N2 (centres undefined) | inactive |
| Cc1nc2ccc3ccccc3c2s1.O=[N+]([O-])c1cc([N+](=O)[O-])c(O)c([N+](=O)[O-])c1 | inactive |
| CN(C(=O)Cc1ccc(Cl)c(Cl)c1)[C@@H]1CCCC[C@H]1N1CCCC1 | inactive |
| Clc1n[nH]nc1-c1nn[nH][15n]1 | inactive |
| CN(CCCl)Cc1cc(Cl)c(NC2=NCCN2)c(Cl)c1 | inactive |
| O=P1(Nc2ccccn2)COc2ccccc2OC1 | inactive |
| O=C(O)[C@@H](O)c1ccc([As](=O)(O)O)cc1 | inactive |
| CP(=O)(NC(=O)Nc1ccccc1)Oc1ccccc1 (centres undefined) | inactive |
| O=C(COc1ccccc1)OC1CN2CCC1CC2 (centres undefined) | inactive |
| CP(=S)(Nn1cnnc1)Oc1ccccc1 (centres undefined) | inactive |
| N1=C(c2nnc(-c3nn[nH]n3)nn2)NNN1 | inactive |
| [N-]=[N+]=NCC(N)=O | inactive |
| COc1ccccc1OP(C)(=O)Nc1ccc(C)cc1 (centres undefined) | inactive |
| O=[As]c1ccc(S(=O)(=O)NCCO)cc1 (centres undefined) | inactive |
| NC(=O)Nc1cc([As](=O)(O)O)cc(I)c1O | inactive |
| O=C(OC1CN2CCC1CC2)C12CC3CC(CC(C3)C1)C2 (centres undefined) | inactive |
